These results are taken from publication PMC10258805, “Nonpeptidic Oxazole-Based Prolyl Oligopeptidase Ligands with Disease-Modifying Effects on α-Synuclein Mouse Models of Parkinson’s Disease” (Journal of Medicinal Chemistry, 2023).

Data set [1] in a line: LC-MS detection of HUP-55 in the mouse brain. Particulars: C57BL/6JRccHsd, in vivo, ip, 10 mg/kg.
Data set [2] is described as follows: Stability studies (NMR, MS, polarimetry, long-term monitoring). Conditions: over time; ca 5 years of storage at -18°C (Table S1).

SMILES strings stand for the structures.

In data set [1], `Cc1nc(CCCc2ccccc2)oc1N1CCC[C@H]1C#N` [HUP-55, (S)-1-(4-Methyl-2-(3-phenylpropyl)oxazol-5-yl)pyrrolidine-2-carbonitrile] had a concentration at 15 min of 1860 nM and a concentration at 30 min of 1110 nM. Moreover, the “configurational stability (racemization)” value in data set [2] was “no racemization was observed”.
